By UniProt entry, the sequences of proteins in these tests, tags left out. Residues count along the entry.
UniProt P36544, 23-502: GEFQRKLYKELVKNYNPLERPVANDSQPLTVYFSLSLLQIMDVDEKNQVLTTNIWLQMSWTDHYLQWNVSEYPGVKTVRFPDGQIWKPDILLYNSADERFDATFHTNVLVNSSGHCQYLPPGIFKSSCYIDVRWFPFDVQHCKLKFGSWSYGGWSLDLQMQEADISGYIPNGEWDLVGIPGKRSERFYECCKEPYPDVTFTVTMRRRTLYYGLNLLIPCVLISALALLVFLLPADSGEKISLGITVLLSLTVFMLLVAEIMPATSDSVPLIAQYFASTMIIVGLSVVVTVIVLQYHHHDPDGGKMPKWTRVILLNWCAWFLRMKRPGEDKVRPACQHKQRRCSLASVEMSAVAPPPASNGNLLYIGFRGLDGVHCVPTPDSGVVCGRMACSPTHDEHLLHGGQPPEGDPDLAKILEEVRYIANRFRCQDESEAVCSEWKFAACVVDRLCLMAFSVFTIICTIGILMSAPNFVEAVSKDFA

In PMC3882203 (Bioorganic & medicinal chemistry letters, 2013):

Biological target: α7 nicotinic acetylcholine receptor (α7 nAChR) (Homo sapiens, UniProt P36544)

CCN1C[C@]2(COC(=O)c3ccccc3N3C(=O)C[C@H](C)C3=O)CC[C@H](OC)[C@@]34[C@@H]5C[C@H]6[C@H](OC)[C@@H]5[C@](O)(C[C@@H]6OC)[C@](O)([C@@H](OC)[C@H]23)[C@@H]14 [MLA]
% block at 100 nM: 100
